# AlphaSeq binding of Ab-14 light chain variants to a spike HR2 peptide

Values reported by Li et al. 2023, doi:10.1038/s41467-023-39022-2 (FLAb copy).

Binding partner: SARS-CoV-2 spike HR2 peptide, sequence PDVDLGDISGINAS.

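The starting antibody came from a phage panning campaign against this peptide. These sequences belong to a second round, designed from the earlier measurements on random variants of the parent. Their group label is 14L_GP_Gibbs (GP: Gaussian process model; Gibbs: Gibbs sampling; a sequence that several methods proposed may carry one label only). In AlphaSeq, yeast of one mating type display the scFv and yeast of the other type display the target. Pairs that bind mate more often; barcode pairs of the diploids are counted by sequencing. Each replicate has its own calibration line, from reference interactions of the BCL2 family. The assay was run in six technical replicates.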

Ab-14 is the parent antibody, in scFv form: VH, then the linker GGGGSGGGGSGGGGS, then VL. The heavy chain is unchanged in all variants.
VH: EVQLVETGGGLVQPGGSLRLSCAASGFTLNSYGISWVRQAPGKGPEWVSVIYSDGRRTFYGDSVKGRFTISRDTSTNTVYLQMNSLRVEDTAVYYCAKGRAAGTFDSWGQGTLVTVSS
VL: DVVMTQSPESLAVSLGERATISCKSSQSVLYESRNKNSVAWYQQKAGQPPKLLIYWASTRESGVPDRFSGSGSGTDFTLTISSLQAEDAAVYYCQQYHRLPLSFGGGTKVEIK

Positions count from residue 1 of the parent VL; S25L puts L in place of S.
Affinities are written as log10 Kd with Kd in nM; a lower number is a better binder.
A pair that was not seen in that replicate is written "ND"; this usually means weak binding, but a binder can also be missed.

changes,"replicates, log10 nM",control signals
S25L+V29G+L30G+S33Q+K36S+W56E+S62D,0.01 / -0.42 / -0.66 / -0.59 / -0.39 / -0.12,1 of 18 (3.52)
S25A+S26Q+V29N+L30E+W56N+T59Q+S62D,0.44 / 0.35 / 0.14 / 0.01 / 0.10 / 0.23,6 of 18 (2.99)
S25F+S26F+V29W+S33Q+N35Q+K36V+W56N+T59Q+E61L+S62D,0.72 / 0.63 / 0.64 / 0.61 / 0.48 / 0.75,2 of 18 (3.91)
S25V+S26Q+V29E+Y31G+E32G+W56E+S62D,ND / ND / ND / ND / 0.01 / ND,0 of 18
K24V+S25L+S26E+V29T+W56N+T59Q+S62R,-0.28 / -0.47 / -0.42 / -0.41 / -0.46 / -0.27,1 of 18 (2.87)
S25M+S26Q+V29G+Y31M+K36V+W56H+E61L+S62E,0.48 / 0.59 / 0.25 / 0.18 / 0.27 / 0.62,1 of 18 (4.37)
S25L+Q27P+L30N+Y31G+W56E+S62Q+Q96D,0.73 / 0.52 / 0.27 / 0.44 / 0.50 / 0.76,0 of 18
S25L+S26M+V29W+Y31G+E32Q+R34L+W56N+T59Q+S62H,0.18 / 0.10 / 0.20 / -0.02 / 0.12 / -0.02,2 of 18 (3.91)
S25L+S28H+L30E+N35L+W56N+E61L+S62K,0.70 / 0.66 / 0.54 / 0.58 / 0.71 / 0.74,0 of 18
S25V+S28L+V29D+Y31G+W56H+E61L,0.54 / 0.84 / 0.61 / 0.60 / 0.67 / 1.03,2 of 18 (2.68)
S25L+S26E+Q27C+V29Q+L30E+E32W+K36T+W56G,0.27 / 0.21 / -0.02 / 0.19 / 0.18 / 0.18,1 of 18 (2.81)
S25M+S26D+S28W+L30D+E32G+S33D+N35W+W56N,0.47 / 0.52 / 0.63 / 0.47 / 1.05 / 0.54,0 of 18
S25L+Y31G+E32G+W56H+S103Y,0.49 / 0.54 / 0.42 / 0.55 / 0.71 / 0.66,0 of 18
S25L+L30E+Y31Q+S33E+W56H+T59Q+S62V+P101C,ND / ND / ND / ND / ND / ND,0 of 18
S25L+S26M+Q27I+L30E+K36Q+W56S+T59Y+E61L+S62D,0.81 / 0.58 / 0.38 / 0.23 / 0.55 / 0.68,1 of 18 (4.22)
S25L+S26Q+S28L+V29M+N35M+W56N+T59Q+E61W,0.51 / 0.24 / 0.46 / -0.03 / 0.42 / 0.64,1 of 18 (3.33)
S25M+V29W+Y31M+S33Q+K36V+W56Q+T59K+E61L+S62L,0.17 / 0.16 / 0.05 / 0.20 / 0.03 / 0.30,2 of 18 (2.46)
Q27A+L30E+S33D+W56H+S62Q+S103M,0.96 / 1.10 / 0.75 / 0.75 / 1.26 / 0.65,2 of 18 (2.66)
S25L+Q27N+V29F+N35Q+W56E+T59Q+S62M,-0.09 / -0.21 / -0.36 / -0.38 / -0.37 / -0.23,1 of 18 (4.46)
S25A+Q27P+V29M+L30E+N37Q+W56H+T59L+E61L+S62E,0.90 / 0.89 / 0.74 / 1.01 / 0.84 / 0.90,2 of 18 (3.17)
S25V+S26M+Q27G+S28E+V29M+L30D+W56H+T59E+S103Q,0.45 / 0.33 / 0.16 / 0.35 / 0.03 / 0.40,0 of 18
S25L+S26Q+Q27F+V29E+L30E+E32G+W56S+T59Q,0.25 / 0.08 / -0.11 / 0.03 / -0.06 / 0.16,0 of 18
S25M+V29A+L30P+Y31M+K36W+W56N+T59K,2.00 / ND / 1.42 / 2.04 / 1.07 / 0.77,0 of 18
S25V+V29W+L30Q+N37Q+W56H+T59Q+S62E,-0.05 / -0.15 / 0.05 / 0.25 / 0.22 / 0.74,0 of 18
S25V+S26M+V29H+L30W+Y31Q+W56H+T59L+S62V,0.72 / 0.74 / 0.52 / 0.59 / 0.54 / 0.87,1 of 18 (2.13)
K24V+S25L+S26Q+W56D+T59K+S62E,0.06 / 0.03 / -0.10 / -0.30 / -0.06 / -0.14,1 of 18 (2.31)
K24A+S25L+S26Q+V29E+E32G+W56N+S62D,0.02 / -0.09 / -0.12 / -0.20 / -0.28 / 0.07,1 of 18 (3.89)
S25V+S26Q+V29E+Y31G+E32G+N37W+W56E+S62D,0.90 / 0.59 / 0.60 / 0.26 / 0.34 / 0.68,2 of 18 (2.93)
S25L+S26D+Q27T+V29W+E32G+S33K+W56Q+T59L,1.03 / 1.05 / 0.71 / 1.16 / 0.70 / 1.17,1 of 18 (2.91)
S25W+S26E+L30M+Y31G+W56N,0.18 / -0.04 / 0.25 / 0.25 / -0.18 / 0.04,2 of 18 (2.91)
S25L+S26Q+Q27A+S28Q+V29D+L30E+E32W+W56Q+S62D,-0.05 / -0.20 / -0.30 / -0.35 / 0.01 / 0.01,5 of 18 (2.75)
S25V+Q27E+V29Q+K36F+W56N+S62E,0.44 / 0.20 / 0.28 / 0.29 / 0.31 / 0.31,2 of 18 (2.21)
S25L+S26Q+Q27I+V29P+L30G+S33Q+W56E+E61C+S62D,-0.25 / -0.81 / -0.88 / -0.98 / -1.05 / -0.65,0 of 18
S25M+Q27F+S28V+V29Y+L30G+R34T+K36S+W56D+S62D,-0.16 / 0.01 / -0.41 / -0.23 / -0.21 / 0.18,0 of 18
S25F+V29E+E32G+S33E+N35D+W56N+T59Q+E61L,0.21 / 0.00 / -0.04 / -0.12 / 0.02 / 0.20,1 of 18 (4.07)
S25L+S26D+S28W+V29Q+L30D+N37A+W56Q+S62Q,0.31 / 0.34 / 0.13 / 0.16 / 0.35 / 0.32,3 of 18 (3.05)
S25L+S26M+Q27G+L30E+Y31Q+E32L+W56H+T59L+S62V+Q96A,0.74 / 0.69 / 0.74 / 0.55 / 0.60 / 0.86,1 of 18 (3.27)
K24F+S25I+S26P+V29G+E32D+K36D+W56S+E61F,-0.04 / -0.06 / -0.14 / -0.07 / -0.26 / -0.05,2 of 18 (2.63)

Picked from the list: the 3 lowest averages where every replicate gave a value.

changes,"replicates, log10 nM",control signals
S25L+S26Q+Q27I+V29P+L30G+S33Q+W56E+E61C+S62D,-0.25 / -0.81 / -0.88 / -0.98 / -1.05 / -0.65,0 of 18
K24V+S25L+S26E+V29T+W56N+T59Q+S62R,-0.28 / -0.47 / -0.42 / -0.41 / -0.46 / -0.27,1 of 18 (2.87)
S25L+V29G+L30G+S33Q+K36S+W56E+S62D,0.01 / -0.42 / -0.66 / -0.59 / -0.39 / -0.12,1 of 18 (3.52)

Background: pairings of all light chain designs with three empty control strains gave a value in 4% of cases (median 2.64, 5th percentile 1.59). Values in that range, when seen in few replicates, are hard to tell from nonspecific mating. The control count says in how many pairings with the empty strains this scFv gave a signal, with their mean in brackets.
The authors' rule: three or more of the six replicates give a measured affinity, fewer mean a poor binder.
The range of this assay differs from that of the first round, and the authors advise against merging the two.